# Measured values taken from US20240351988A1, “ARYL HYDROCARBON RECEPTOR MODULATORS AND THEIR USE IN THE TREATMENT OF DISEASES AND DISORDERS” (Allianthera (Suzhou) Biopharmaceutical Co., Ltd., priority 2021, published 2024).
# Sequences of proteins named here, by UniProt entry; tags and fusion partners are left off. Residues count along the entry.
# UniProt P35869, 11-848 limits assumed: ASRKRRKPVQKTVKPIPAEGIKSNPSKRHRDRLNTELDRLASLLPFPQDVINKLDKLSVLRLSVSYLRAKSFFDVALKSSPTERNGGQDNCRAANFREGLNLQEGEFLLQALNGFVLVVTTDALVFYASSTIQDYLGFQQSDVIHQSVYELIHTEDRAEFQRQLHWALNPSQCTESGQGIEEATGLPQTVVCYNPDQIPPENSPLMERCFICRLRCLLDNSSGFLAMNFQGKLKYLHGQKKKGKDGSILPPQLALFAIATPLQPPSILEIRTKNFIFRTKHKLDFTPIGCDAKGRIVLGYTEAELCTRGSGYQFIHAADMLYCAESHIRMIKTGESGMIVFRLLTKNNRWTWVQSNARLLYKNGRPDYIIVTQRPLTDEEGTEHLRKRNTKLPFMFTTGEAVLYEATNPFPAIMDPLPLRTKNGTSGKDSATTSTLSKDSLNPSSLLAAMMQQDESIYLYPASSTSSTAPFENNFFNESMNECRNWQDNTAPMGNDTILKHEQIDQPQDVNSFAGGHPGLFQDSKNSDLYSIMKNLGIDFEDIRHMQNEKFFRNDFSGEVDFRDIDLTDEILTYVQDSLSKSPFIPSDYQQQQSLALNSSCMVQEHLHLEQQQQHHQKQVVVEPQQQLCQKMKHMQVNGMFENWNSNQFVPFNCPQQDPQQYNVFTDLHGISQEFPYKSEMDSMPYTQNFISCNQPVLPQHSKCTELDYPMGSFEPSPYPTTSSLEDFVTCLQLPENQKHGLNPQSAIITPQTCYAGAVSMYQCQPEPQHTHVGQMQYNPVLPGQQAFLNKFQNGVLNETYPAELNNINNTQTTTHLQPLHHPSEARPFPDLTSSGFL
# Target: Human Aryl Hydrocarbon Receptor (AhR) (Homo sapiens, UniProt P35869)
# Assay: AHR antagonist reporter assay in human cell line (INDIGO AhR Reporter Assay System, kynurenic acid activated)
# Experimental: The AhR reporter assay was performed following the protocol of the Human Aryl Hydrocarbon Receptor (AhR) Reporter Assay System (INDIGO Bioscience, #1B06001-32). AhR Reporter Cell was thawed and pre-incubated in Cell Recovery Medium (CRM) for 6 hours. The media was then removed and the cells were incubated with Compound Screening Medium (CSM) supplemented with 200 μM kynurenic acid for 24 hours in the absence (negative control) or presence of increasing concentrations of test compounds (typical dilution: […], 3.2 nM, 16 nM, 80 nM, 400 nM, 2 μM, 10 μM in duplicates). For positive inhibition control, cells activated with 200 μM kynurenic acid were incubated in the presence of literature AHR antagonists; alternatively un-activated cells were used as positive inhibition control. Following 24 hours incubation, the media was removed and Luciferase Detection Reagent (LDR) added. The firefly luciferase activity was quantified using a plate reader. Results were normalized by positive and negative controls.
compound,measurement,setting,value
O=C(NC1CCNC1=O)c1cc(-c2ccc(Cl)cc2)nn(-c2cccc(F)c2)c1=O (centres unmarked),IC50,,< 100 nM
COC[C@H](C)NC(=O)c1cc(-c2ccc(Cl)cc2)nn(-c2cn[nH]c2)c1=O [Compound 62],AhR Reporter Assay KA Antagonist Mode: IC50 (nM),"200 μM kynurenic acid, 24 hours, luciferase",C (C <100 nM)
